The values that follow come from publication PMC12071940, “Shortened PGLYRP1 Peptides Regulate Antitumor Activity of Cytotoxic Lymphocytes via TREM-1 Receptor: From Biology to Bioinformatics” (International Journal of Molecular Sciences, 2025).

Amino acid sequences for entries named in this document (tags omitted). Residues count along the entry.
UniProt Q9NP99, 21-205 limits assumed: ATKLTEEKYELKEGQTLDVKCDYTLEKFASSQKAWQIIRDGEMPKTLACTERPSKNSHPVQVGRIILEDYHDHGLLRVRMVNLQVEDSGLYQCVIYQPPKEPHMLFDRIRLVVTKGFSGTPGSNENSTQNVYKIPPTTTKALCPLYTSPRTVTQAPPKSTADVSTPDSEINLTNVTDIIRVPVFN

This assay has as its target T1, TREM-1 receptor (Homo sapiens, UniProt Q9NP99).
T1 construct: made in house
The assay can be described thus: Microscale thermophoresis binding to sTREM-1. Particulars: Alexa Fluor 633-labeled sTREM-1, peptide in 16 concentrations by sequential dilution, 30 min in the dark, room temperature, 24% IR laser power, at least three replicates, average ± SD, read-out: Kd (dissociation constant). Here is the method: First, we evaluated the affinity of the interaction of these peptides with the receptor in solution. The interaction between the selected peptides and the receptor was studied using microscale thermophoresis. The affinity of the studied complexes was assessed based on the change in thermodynamic signals obtained by adding various concentrations of peptides to fluorescently labeled TREM-1.
The purified sTREM-1 protein was labeled using an Alexa Fluor^TM 633 Protein Labeling Kit (Life Technologies Corporation, Eugene, OR, USA) in accordance with the manufacturer’s protocol.
The 17.0, N9, and N15 peptides (C = 200 nM for all) were incubated for 30 min in the dark at room temperature in 16 different concentrations obtained through sequential dilution, starting with the highest soluble concentration. The samples were transferred to glass capillaries (Monolith NT Capillaries) and analyzed via microscale thermophoresis using a Nano-Temperature Monolith NT 115 device (24% IR laser power). The signal quality was monitored using a NanoTemper Monolith device to detect possible autofluorescence of the ligand, aggregation, or changes in the photobleaching rate. The experiments were carried out in at least three replicates and processed using affinity analysis software (MO Control v.1.6.1, NanoTemper Technologies GmbH, München, Germany).
In general terms: Microscale thermophoresis detects binding through changes in fluorescence in a small temperature gradient.
Regarding `CSCC[C@H](NC(=O)[C@H](Cc1c[nH]cn1)NC(=O)[C@H](Cc1ccc(O)cc1)NC(=O)[C@H](Cc1c[nH]cn1)NC(=O)[C@H](CCC(N)=O)NC(=O)[C@@H](NC(=O)[C@H](CC(N)=O)NC(=O)[C@@H](N)CCCNC(=N)N)C(C)C)C(=O)N[C@@H](CCCCN)C(=O)N[C@H](C(=O)O)[C@@H](C)O` [17.0], the Kd (in general, the free concentration of one partner at which half of the binding sites on the other are occupied at equilibrium, for simple one-to-one binding) is 1.32 ± 0.2 nM.
The figure for `C[C@H](NC(=O)[C@@H]1CCCN1)C(=O)N[C@@H](CO)C(=O)N[C@@H](CS)C(=O)N[C@@H](CCC(N)=O)C(=O)N[C@@H](CCC(N)=O)C(=O)N[C@@H](CCC(N)=O)C(=O)N[C@@H](C)C(=O)N[C@@H](CCCNC(=N)N)C(=O)O` [N9] is 9.66 ± 0.5 nM.
Under `CC(C)[C@H](NC(=O)[C@H](Cc1ccc(O)cc1)NC(=O)[C@@H](N)CCCNC(=N)N)C(=O)N[C@H](C(=O)N[C@H](C(=O)N[C@@H](CO)C(=O)N[C@@H](Cc1c[nH]cn1)C(=O)N[C@H](C(=O)N[C@@H](C)C(=O)NCC(=O)N[C@@H](CO)C(=O)N[C@@H](CO)C(=O)N[C@@H](CS)C(=O)N[C@@H](CC(N)=O)C(=O)N[C@H](C(=O)O)[C@@H](C)O)[C@@H](C)O)C(C)C)C(C)C` [N15] stands 7.43 ± 0.4 nM.
